Literature values in patent US6703045B2, “Composition and method for maintaining blood glucose level” (Council of Scientific & Industrial Research, priority 2001, dated 2004).

System: human serum proteins

Cc1cnc(C(=O)NCCc2ccc(S(=O)(=O)NC(=O)NC3CCCCC3)cc2)cn1 [Glipizide, 1-cyclohexyl-3-[[p-[2-(5-methylpyrazinecarboxamido)ethyl]phenyl]sulfonyl] urea]
binding to human serum proteins: extensively bound
